The list shows a part of the results, in another mix than the full data. Some tests of the compounds listed are not included; inactive here does not mean inactive elsewhere. Calls of active or inactive are those of the source.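 Rule for the calls: active = inhibition above the mean plus 3 SD of all compounds in the same screening run (cut at about 4.5% in these data); inactive = the rest.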

The text below walks through data of PubChem BioAssay AID1556 (The Scripps Research Institute Molecular Screening Center, 2009).

This assay concerns metallo-beta-lactamase IMP-1 (Pseudomonas aeruginosa). As to the kind of experiment: IMP-1 metallo-beta-lactamase inhibitors, primary screen, biochemical, epi-absorbance readout, Pseudomonas aeruginosa enzyme (AID 1556).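 Note: 0% = IMP-1 with DMSO and 100% = DMSO wells lacking enzyme.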 To be noted: purified IMP-1, nitrocefin hydrolysis, epi-absorbance fluorescence; at 5.6 µM; stronger effect = higher value. A digest of the protocol:
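Assay system: purified recombinant IMP-1 beta-lactamase. Input: IMP-1 0.2 nM before substrate addition. Buffer or medium: Zinc- and detergent-supplemented HEPES buffer, pH 7.1. Schedule: 25 °C, 15 min preincubation, 25 min reaction. Signal: Epi-absorbance fluorescence, 480 nm excitation, 530 nm emission. Evaluation: percent inhibition from optical density relative to buffer-blank wells.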
The inhibition is the change of the read-out against control, counted positive when it falls. `CN(C)c1ccc(C(=O)NCC2(N(C)C)CCCCC2)cc1`: the inhibition is inactive: -2.23%.
For `CN(C)C1CCCC1OC(=O)C(O)(c1ccccc1)c1ccccc1` (centres undefined), the inhibition is inactive: -5.49%.
`Cc1ccccc1C(=O)NCC1(N2CCCCC2)CCCCC1`: the inhibition is inactive: -3.2%.
For `COc1ccc(C(=O)NCC2(N(C)C)CCCCC2)cc1` the value was inactive: -0.21%.
As for `O=C(NCC1(N2CCCCC2)CCCCC1)c1cccc(Br)c1`, the inhibition was inactive: -1.96%.
As for `CCN1CCCC(OC(=O)C2(O)c3ccccc3C=Cc3ccccc32)C1` (centres undefined), the inhibition is inactive: 1.31%.
With `Cc1cc(C(=O)NCC2(N3CCCCC3)CCCCC2)ccc1[N+](=O)[O-]`, the inhibition is inactive: -2.87%.
Consider `O=C(NCC1(N2CCCCC2)CCCCC1)c1cc(F)c(F)cc1Cl`, for which the inhibition was inactive: -1.49%.
For `C=CCN1CCN(CCOC(=O)C(O)(c2ccccc2)c2ccccc2)CC1` the value was inactive: -1.84%.
On to `CN1[C@@H]2CC[C@H]1CC(OC(=O)C(O)(c1ccccc1)c1ccccc1)C2` (some centres undefined), for which the inhibition is inactive: -3.05%.
For `O=C(NCC1(N2CCCCC2)CCCCC1)c1cc([N+](=O)[O-])ccc1Cl` the value was inactive: -0.81%.
Take `Cc1ccc(C(=O)NCC2(N3CCCCC3)CCCCC2)cc1`: the inhibition was inactive: -0.59%.
With `COc1cc(SC)ccc1C(=O)NCC1(N(C)C)CCCCC1`, the inhibition was inactive: 0.17%.
For `CCN(CC)CC(C)C(C)OC(=O)C(O)(c1ccccc1)c1ccccc1` (centres undefined) the value was inactive: -1.58%; for `CC(C)N1C(=O)CC2(CCN(CCOC(=O)C(O)(c3ccccc3)c3ccccc3)CC2)C1=O`, inactive: -0.91%; for `O=C(OC1CN2CCC1CC2)C(CO)(c1ccccc1)c1ccccc1` (centres undefined), inactive: -2.59%.
For `CC(C)Oc1ccc(C(=O)NCC2(N(C)C)CCCCC2)cc1` the value was inactive: -0.33%.
In the case of `CN(C)c1cccc(C(=O)NCC2(N(C)C)CCCCC2)c1`, the inhibition was inactive: -1.72%.
Consider `COc1ccc(Br)c(C(=O)NCC2(N3CCCCC3)CCCCC2)c1`, for which the inhibition was inactive: 0.37%.
For `COc1cc(C(=O)NCC2(N(C)C)CCCCC2)c([N+](=O)[O-])cc1OC`, the inhibition was inactive: 0.92%.
As to `CN(C)C1(CNC(=O)c2ccc(Br)cc2)CCCCC1`, the inhibition is inactive: -2.99%.
For `O=C(NCC1(N2CCCCC2)CCCCC1)c1cccc(Cl)c1` the value was inactive: -1.29%; for `COc1ccc(Cl)cc1C(=O)NCC1(N(C)C)CCCCC1`, inactive: -1.2%.
For `COc1cccc(C(=O)NCC2(N3CCCCC3)CCCCC2)c1` the value was inactive: -2.42%.
